{
  "source": "patent US20080234202A1",
  "about": "“Non-natural amino acids and neurotensin analogues” (priority 2004, published 2008)",
  "key": {"[1]": {"test_system": "Salmonella typhimurium strains TA98, TA100, TA1535 and TA1537 and Escherichia coli strain WP2 uvrA", "conditions": "with and without S9; initial data"}, "[2]": {"test_system": "thymidine kinase locus of L5178Y TK± mouse lymphoma cells", "test": "Mouse lymphoma study", "conditions": "with and without S9; initial data"}},
  "note": "Where a SMILES comes first, the peptide text is derived from it. [ ]: non-standard residue; d: D form. The star is where a group is joined. Tle = CC(C)(C)[C@H](N)C(=O)O; X1 = C[C@@H](CCCCCN)C(=O)*",
  "data": [
    {"molecule": "CC(C)C[C@H](NC(=O)[C@@H](NC(=O)[C@H](Cc1ccc(O)cc1)NC(=O)[C@@H]1CCCN1C(=O)[C@H](CCCNC(=N)N)NC(=O)[C@@H](C)CCCCCN)C(C)(C)C)C(=O)O", "note": "[ABS201, hLys-Arg-Pro-Tyr-t-Leu-Leu] (X1-RPY[Tle]L-OH)", "values": [
      {"measurement": "Ames study result", "setting": "[1]", "result": "inactive"},
      {"measurement": "mouse lymphoma study result", "setting": "[2]", "result": "inactive"}
    ]}
  ]
}
